Values of other authors, collected in patent US20210198628A1, “BASAL MEDIA FOR GROWING NK-92 CELLS” (NantKwest, Inc., priority 2018, published 2021).

System: NK-92® cells
Conditions: NK-92 cells in culture

rIL-2: recombinant interleukin 2
dose sufficient to maintain proliferation: 1 IU/mL
